GLP-1R agonist – agonists of human GLP-1 receptor; AID 624172; P43220; HEK293 GLP-1R CRE-luciferase, luminescence, 4-6 h; cells express a hypersensitive GLP-1R form; actives 0.007% (n = 380,000); Potency, µM (highest dose often 45.6 µM), inactives show top-dose activation, most hits filed as activators; further: potency means the concentration at half of the fitted maximal effect; % of control where 0% means no effect
PTHR1 agonist – activates the human parathyroid hormone receptor PTHR1 | Q03431 | HEK293 GP2 PTHR1 cells, GloSensor cAMP luminescence, 1 h | Potency, µM (doses to about 115 µM), without a hit: at the top dose activation, actives largely listed as activators | actives 0.075% (n = 410,000); further: potency means the concentration at half of the fitted maximal effect; nearly all actives have a fitted effect of over 55% in size
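HEK-293-derived GP2 cells expressing PTHR1 and a GloSensor cAMP reporter, 3,000/well, plated overnight, given luciferin plus IBMX (each 0.5 mM as added) for 1 h at 37 °C, then compound for 1 h at 37 °C. Luminescence was read after 15 min at room temperature.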
GLP-1R inv ag – acts as inverse agonist at human GLP-1 receptor; P43220; HEK293 GLP-1R CRE-luciferase, luminescence, 24 h; GLP-1R form is constitutively active; Potency, µM (top dose mostly 38.3 µM), without a hit: top-dose activity change, negative = inhibition, usual class: inhibitors; actives 1.6% (n = 410,000); further: potency means the concentration at half of the fitted maximal effect; on the % scale 0 is the no-effect control and ±100 the full control effect; nearly all actives have a fitted effect of over 55% in size
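GLP-1R inverse agonism mode: basal reporter luminescence in engineered HEK293 cells measured after one day of compound exposure at 37 deg C, with a 12 min room-temperature detection step.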
GLP1R cytotox – cytotoxicity counter-screen for GLP-1 receptor inverse agonists; HEK293 cAMP-luciferase reporter cells, luminescence, 24 h; Potency, µM (top dose mostly 38.3 µM), for inactives: at the top dose activity change, negative = inhibition, usual class: inhibitors; actives 0.13% (n = 410,000); AID 624418;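 further: loss of luciferase light is scored as toxicity; potency means the concentration at half of the fitted maximal effect; on the % scale 0 is the no-effect control and ±100 the full control effect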
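Quantitative HTS format, 1536 wells, 200 cells/uL seeded. Compounds: 23 nL, 24 h, 37 °C. Detection: luciferase reagent, luminescence at 12 min RT; decreased signal taken as cytotoxic.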
miR-21 reporter – miR-21 reporter, rising signal | AID 2288 | HeLa miR-21 FLuc reporter, luciferase, 48 h | 340,000 tested, under 10 active | Potency, µM (titrated, usually from 38.3 µM), for the others: at the top dose reporter change, positive = more light; active = well fitted rising curve with a large enough effect; inconclusive = small, poorly fitted or top-dose-only effect; inactive = no such curve, though single readings can be large or run the other way;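 also: % of control where 0% means no effect; miR-21 action dims this reporter so a rising signal means less miR-21 action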
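Using DMEM plus 10% FBS, HeLa miR-21-FLuc cells are incubated with test compounds (final up to about 40uM) for 48 hours; firefly luciferase signal is then imaged following reagent-mediated lysis.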
Pin1 inhibitor – human Pin1 inhibition | Q13526 | Pin1 FP peptide displacement, HiFluor488, 10 min | Potency, µM (doses to about 115 µM), without a hit: top-dose activity, negative = inhibition, hits mostly inhibitors | actives 0.009% (n = 390,000) | AID 504891; active means well fitted inhibition curve with a large enough effect in the polarisation, with a control signal flat, not every such curve was filed as active; inconclusive means small, poorly fitted or top-dose-only effect, or effect the other way, or a change in a side signal; inactive means no such curve, though single readings can be large or run the other way; the % refers to the polarisation; further: potency means the concentration at half of the fitted maximal effect; on the % scale 0 is the no-effect control and ±100 the full control effect
Numbers without * were called inactive. Compounds with a hit are over-represented: about 1.7% of the library has one in this group of screens. Unless noted, the call rests on the fitted dose curve; in most records, active means well fitted curve in the direction sought with a large enough effect; inconclusive means small, poorly fitted or top-dose-only effect, or another doubt; inactive means no such curve, though single readings can be large; an effect the other way counts as inactive or inconclusive.

How did CCCN(CCC)S(=O)(=O)c1ccc(Cl)c([N+](=O)[O-])c1 do in these assays?
GLP-1R agonist: -8.1%; PTHR1 agonist: -52.8%; GLP-1R inv ag: inconclusive; GLP1R cytotox: 12.6µM*; miR-21 reporter: inconclusive; Pin1 inhibitor: -6.1%

Results for COc1ccccc1NC(=O)c1cnc(SCC(=O)N2CCOCC2)n(C)c1=O ?
PTHR1 agonist: -36.3%; GLP-1R inv ag: 2.9%; GLP1R cytotox: 1.5%; miR-21 reporter: 3.7%; Pin1 inhibitor: inconclusive

What do the screens show for `CCc1cccc(OCC(=O)Nc2ccc(C)c(S(=O)(=O)N3CCCCCC3)c2)c1`?
GLP-1R agonist: 7.1%; PTHR1 agonist: -18.8%; GLP-1R inv ag: 5.01µM*; GLP1R cytotox: 6.6%; Pin1 inhibitor: 4.5%

What do the screens show for `CCOc1ccc(C(=O)CCC(=O)Nc2ccc(C)c(S(=O)(=O)N3CCCCC3)c2)cc1`?
GLP-1R agonist: 10.4%; PTHR1 agonist: -15.4%; GLP-1R inv ag: inconclusive; GLP1R cytotox: 8.1%; Pin1 inhibitor: 31.4%

What do the screens show for `Cc1ccc(NC(=O)/C=C/c2ccco2)cc1S(=O)(=O)N1CCCCCC1`?
GLP-1R agonist: 9.6%; PTHR1 agonist: -37.0%; GLP-1R inv ag: 10µM*; GLP1R cytotox: -19.1%; Pin1 inhibitor: 21.7%

Results for CC(=O)c1ccc(OCCCC(=O)Nc2ccc(C)c(S(=O)(=O)N3CCCCC3)c2)cc1 ?
GLP-1R agonist: 10.0%; PTHR1 agonist: -28.3%; GLP-1R inv ag: 11.2µM*; GLP1R cytotox: -4.6%; Pin1 inhibitor: 7.6%

Results for CC(=O)NC1[C@H]([C@H](O)[C@H](O)CO)OC(C(=O)O)=C[C@H]1N=C(N)N (stereo not given in full) ?
GLP-1R agonist: 7.0%

What do the screens show for `CN(Cc1ccccc1F)C(=O)c1ccc(Oc2ccccc2)cc1`?
GLP-1R agonist: 6.3%; PTHR1 agonist: -5.4%; GLP-1R inv ag: inconclusive; GLP1R cytotox: -3.9%; miR-21 reporter: -22.9%; Pin1 inhibitor: -1.5%

What do the screens show for `CN(Cc1ccc(C(F)(F)F)cc1)C(=O)c1ccc(Oc2ccccc2)cc1`?
GLP-1R agonist: 0.4%; PTHR1 agonist: -28.6%; GLP-1R inv ag: 10µM*; GLP1R cytotox: 4.4%; miR-21 reporter: 0.5%; Pin1 inhibitor: -3.6%

How did COc1ccc(Br)cc1/C=N/NC(=O)CNC(=O)C1COc2ccccc2O1 (stereo not given) do in these assays?
GLP-1R agonist: -0.4%; PTHR1 agonist: inactive; GLP-1R inv ag: inconclusive; GLP1R cytotox: -7.8%; miR-21 reporter: -3.5%; Pin1 inhibitor: inconclusive

What do the screens show for `O=C(CNC(=O)C1COc2ccccc2O1)N/N=C\c1ccc(Br)cc1` (stereo not given)?
GLP-1R agonist: 13.1%; PTHR1 agonist: inactive; GLP-1R inv ag: 10µM*; GLP1R cytotox: 3.1%; miR-21 reporter: 2.3%; Pin1 inhibitor: -1.2%

What do the screens show for `C/C(=N\NC(=S)Nc1c(C)cccc1C)c1ccc(O)cc1`?
GLP-1R agonist: 15.7%; PTHR1 agonist: -24.9%; GLP-1R inv ag: 10µM*; GLP1R cytotox: inconclusive; miR-21 reporter: 4.4%; Pin1 inhibitor: 0.9%

Results for C/C(=N\NC(=S)Nc1ccc(C)cc1)c1cccc(N)c1 ?
GLP-1R agonist: 10.4%; PTHR1 agonist: inactive; GLP-1R inv ag: inconclusive; GLP1R cytotox: 4.47µM*; miR-21 reporter: -27.8%; Pin1 inhibitor: -2.4%

What do the screens show for `C/C(=N\NC(=S)Nc1c(C)cccc1C)c1cc2ccccc2o1`?
GLP-1R agonist: 2.5%; PTHR1 agonist: -17.5%; GLP-1R inv ag: inconclusive; GLP1R cytotox: 0.0%; miR-21 reporter: 12.6%; Pin1 inhibitor: 4.0%

What do the screens show for `CC(=O)Oc1ccc(C2(c3ccc(OC(C)=O)cc3)Oc3ccccc3NC2=O)cc1`?
GLP-1R agonist: 5.3%

Next part; the last 3 above are carried over.
Results for C/C(=N\NC(=S)Nc1ccc(C)cc1)c1cccc(N)c1 ?
GLP-1R agonist: 10.4%; PTHR1 agonist: inactive; GLP-1R inv ag: inconclusive; GLP1R cytotox: 4.47µM*; miR-21 reporter: -27.8%; Pin1 inhibitor: -2.4%

What do the screens show for `C/C(=N\NC(=S)Nc1c(C)cccc1C)c1cc2ccccc2o1`?
GLP-1R agonist: 2.5%; PTHR1 agonist: -17.5%; GLP-1R inv ag: inconclusive; GLP1R cytotox: 0.0%; miR-21 reporter: 12.6%; Pin1 inhibitor: 4.0%

What do the screens show for `CC(=O)Oc1ccc(C2(c3ccc(OC(C)=O)cc3)Oc3ccccc3NC2=O)cc1`?
GLP-1R agonist: 5.3%

Results for CCCCN1C(=O)c2ccccc2NC1c1ccc(OC)c(COc2ccc(NC(C)=O)cc2)c1 (stereo not given) ?
Pin1 inhibitor: -0.6%

How did CC(Oc1ccc(F)cc1)C(=O)Nc1sc2c(c1C(=O)NCc1cccnc1)CCCC2 (stereo not given) do in these assays?
GLP-1R agonist: 1.0%; PTHR1 agonist: -10.1%; GLP-1R inv ag: 10µM*; GLP1R cytotox: -23.7%; miR-21 reporter: 18.4%; Pin1 inhibitor: 23.4%

What do the screens show for `O=C(Nc1sc2c(c1C(=O)NCc1cccnc1)CCCC2)c1ccco1`?
GLP-1R agonist: 19.0%; PTHR1 agonist: inconclusive; GLP-1R inv ag: 0.0%; GLP1R cytotox: 1.6%; miR-21 reporter: 0.3%; Pin1 inhibitor: 17.6%

Results for COc1cc(OC)c(NS(=O)(=O)c2cc(-c3cnc(C)o3)ccc2OC)cc1Cl ?
PTHR1 agonist: inactive; GLP-1R inv ag: inconclusive; GLP1R cytotox: -4.7%; miR-21 reporter: 17.0%; Pin1 inhibitor: -0.6%

What do the screens show for `COc1ccc(NS(=O)(=O)c2ccc3c(c2)CCC(=O)N3)cc1`?
Pin1 inhibitor: -1.7%

How did CCNC(=S)N1N=C2c3ccccc3CCC2C1c1ccc(F)cc1 (stereo not given) do in these assays?
GLP-1R agonist: -17.6%; PTHR1 agonist: -13.9%; GLP-1R inv ag: 3.55µM*; GLP1R cytotox: inconclusive; miR-21 reporter: 13.9%; Pin1 inhibitor: 2.8%

Results for COc1ccc2c(c1)/C(=C\c1cccc(/C=C3/C(=O)Nc4ccc(OC)cc43)n1)C(=O)N2 ?
GLP-1R agonist: -1.0%; PTHR1 agonist: -38.1%; GLP-1R inv ag: inconclusive; GLP1R cytotox: 2.24µM*; Pin1 inhibitor: 6.5%

How did O=C(Cc1coc2cc3c(cc12)CCC3)NCC1(N2CCCCC2)CCCCC1 do in these assays?
GLP-1R agonist: 8.8%; PTHR1 agonist: inactive; GLP-1R inv ag: 10µM*; GLP1R cytotox: inconclusive; miR-21 reporter: -12.2%; Pin1 inhibitor: 10.6%

How did COc1ccc(-c2sc(N)nc2-c2ccccc2)cc1 do in these assays?
Pin1 inhibitor: 1.2%

What do the screens show for `COc1cc2c(=O)c(C(=O)c3ccc(C)c(C)c3)cn(Cc3ccccc3F)c2cc1OC`?
PTHR1 agonist: -62.5%; GLP-1R inv ag: 17.4%; GLP1R cytotox: -2.4%; miR-21 reporter: -8.8%; Pin1 inhibitor: inconclusive

How did CC(NCC(=O)Nc1ccccc1C(=O)NC1CC1)c1cccs1 (stereo not given) do in these assays?
GLP-1R agonist: 17.8%; PTHR1 agonist: inactive; GLP-1R inv ag: 12.8%; GLP1R cytotox: -7.6%; Pin1 inhibitor: -5.1%

From PubChem
